{"source": "patent US7531312B2", "about": "“Simplified biological evaluation method of natural and artificial chemicals by using DNA injury index and apparatus therefor” (TAS Project Co., Ltd., priority 2000, dated 2009)", "test_system": "2′-deoxyguanosine (dG)", "conditions": "1%; KBrO3 30 minutes; pure water ctrl 3.779", "data": [{"smiles": "CO", "note": "[Meth, methanol]", "values": [{"measurement": "8OHdG × 10^−3", "value": 2.882, "unit": "mVs"}]}]}
